{
  "source": "PubChem BioAssay AID1259423",
  "about": "(Fisher Drug Discovery Resource Center, 2018)",
  "note": "Only a part is listed here, and it is no random draw. Active and inactive are the calls of the source. Rule as the data show it: active = activation above about 40%; inactive = the rest, inconclusive results apart.",
  "data": [
    {"test_system": "Aedes aegypti neuropeptide Y-like receptor 7 (NPYLR7)", "assay": "agonists of mosquito NPYLR7 receptor, primary screen, cell-based, Aedes aegypti, calcium fluorescence, mosquito biting behavior (AID 1259423);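 also: 0% = vehicle and 100% = reference agonist at the receptor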", "settings": "HEK293T NPYLR7/Galpha15, GCaMP6s calcium fluorescence; at 10 µM; stronger effect = higher value", "values": [
      {"smiles": "CN(CCCl)CCCl", "activation": "inactive: -8.16%"}
    ]}
  ]
}
